{
  "sequences": {"note": "Amino acid sequences for entries named in this document (tags omitted).", "UniProt Q9HVF8, entry or part of it": "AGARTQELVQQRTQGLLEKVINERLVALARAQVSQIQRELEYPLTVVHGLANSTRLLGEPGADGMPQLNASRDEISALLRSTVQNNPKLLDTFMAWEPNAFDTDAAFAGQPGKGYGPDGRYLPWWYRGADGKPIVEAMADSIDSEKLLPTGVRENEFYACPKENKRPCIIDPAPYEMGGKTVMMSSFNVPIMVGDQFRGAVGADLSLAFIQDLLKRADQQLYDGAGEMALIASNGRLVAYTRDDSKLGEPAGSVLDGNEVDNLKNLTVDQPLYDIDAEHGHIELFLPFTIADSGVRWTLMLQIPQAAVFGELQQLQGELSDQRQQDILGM"},
  "source": "paper PMC9040839",
  "about": "“Chemotaxis of the Human Pathogen Pseudomonas aeruginosa to the Neurotransmitter Acetylcholine” (mBio, 2022)",
  "target": "PctD(PA4633)-LBD (Pseudomonas aeruginosa, UniProt Q9HVF8)",
  "test": "biochemical",
  "description": "Measurements were made using a VP-ITC microcalorimeter (MicroCal, Inc., Northampton, MA) at 25°C. […] The mean enthalpies from the injection of ligands into the buffer were subtracted from raw data prior to data fitting using the “one binding site model” of the MicroCal version of the ORIGIN software.",
  "data": [
    {"smiles": "CC(=O)OCC[N+](C)(C)C", "note": "[acetylcholine]", "values": [
      {"measurement": "Kd", "result": "23 ± 1", "unit": "µM"}
    ]}
  ]
}
